Reference: PubChem BioAssay AID1467 (National Center for Advancing Translational Sciences (NCATS), 2008)
The list shows a part of the results, in another mix than the full data. Activity calls are given as the source filed them. The call rests on the fitted dose curve; in most records, active means well fitted curve in the direction sought with a large enough effect; inconclusive means small, poorly fitted or top-dose-only effect, or effect the other way, or another doubt; inactive means no such curve, though single readings can be large or run the other way.

Amino acid sequences for entries named in this document (tags omitted).
UniProt P06280, whole entry: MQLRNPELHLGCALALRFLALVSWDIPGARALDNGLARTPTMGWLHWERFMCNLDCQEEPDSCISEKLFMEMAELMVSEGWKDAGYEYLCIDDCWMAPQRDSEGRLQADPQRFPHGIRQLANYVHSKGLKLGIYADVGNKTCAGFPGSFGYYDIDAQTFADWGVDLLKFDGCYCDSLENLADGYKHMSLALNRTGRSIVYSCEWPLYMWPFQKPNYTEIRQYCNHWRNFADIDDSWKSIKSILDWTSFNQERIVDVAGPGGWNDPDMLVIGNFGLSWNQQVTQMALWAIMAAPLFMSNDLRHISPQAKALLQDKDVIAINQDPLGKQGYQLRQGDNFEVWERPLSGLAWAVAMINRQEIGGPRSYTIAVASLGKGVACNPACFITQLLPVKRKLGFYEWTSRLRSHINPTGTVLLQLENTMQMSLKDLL

Target: Alpha-galactosidase A (Homo sapiens) (UniProt P06280)
Experiment: qHTS Assay for Inhibitors of Human alpha-Galactosidase at pH 4.5.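 Further: 0% = full activity with enzyme and -100% = basal without enzyme.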
Conditions: purified enzyme, 4-MU-alpha-Gal fluorescence; at 105 µM (top of the series) unless noted
Description: NIH Chemical Genomics Center [NCGC]
NIH Molecular Libraries Probe Production centers Network [MLPCN]
Assay Submitter (PI): Wei Zheng
Alpha-galactosidase is a homodimeric glycoprotein that hydrolyzes the terminal alpha-galactosyl moieties from glycolipids and glycoproteins. Deficiency of this enzyme results in Fabry Disease with progressive accumulation of globotriaosylceramide and other glycosphingolipids in vascular endothelial cells that causes renal failure, myocardial infarction and stroke, and premature death in patients. It has been reported that the improper folding and trafficking of alpha-galactosidase resulting from the genetic mutations may account for a significant numbers of Fabry patients. […] We optimized this alpha-galactosidase assay in 1536-well plate format for identifying the novel small molecule inhibitors with the structures other than the sugar analogs in order to develop the new pharmacological chaperones. Although this assay has the same protocol as PubChem AID 992, this is a separate project and, therefore, is published as a separate assay
NCGC Assay Protocol Summary:
This is a fluorogenic enzyme assay with 4-Methylumbelliferyl alpha-D-galactopyranoside as the substrate and human […] as the enzyme preparation. Upon the hydrolysis of this fluorogenic substrate, the resulting product, […]. 4-Methyllumbelliferone, can be excited at 365 nm and emits at 440 nm. This fluorescence which can be detected by a standard fluorescence plate reader. Data were normalized to the controls for basal activity (without enzyme) and 100% activity (with enzyme). In the AC50 values were determined from concentration-response data modeled with the standard Hill equation.
Assay buffer: 50 mM citric acid (titrated with potassium phosphate to pH 4.5), 0.005% Tween-20, pH 4.5. (pH 4.5 is an optimal condition for this enzyme assay)
1536-well assay protocol for the human alpha-galactosidase:
(1) Add 2 ul/well of enzyme (12 nM final)
(2) Add 23 nL compounds in DMSO solution. The final titration was 0.7 nM to 77 uM.
(3) Add 1 ul of substrate (400 uM final)
(4) Incubate at room temperature for 20 min.
(5) Add 2 ul stop solution (1M NaOH and 1M Glycine mixture, pH 10)
(6) Detect the assay plate in a ViewLux plate reader (PerkinElmer) with Ex=365 nm and Em=440nm.
Keywords: MLSMR, MLPCN, NIH Roadmap, qHTS, NCGC, : Alpha-galactosidase, Fabry Disease, pharmacological chaperone, chaperone therapy

Row | SMILES | activity change, negative = inhibition
1 | O=[N+]([O-])c1ncn(CCn2ncnc2[N+](=O)[O-])n1 | inactive: -14.5%
2 | CC(C)(C)C(=O)NC(Sc1ccncn1)C(Cl)(Cl)Cl (stereo not drawn) | inactive: -29.2%
3 | COc1ccc(NP(C)(=O)Oc2ccccc2OC)cc1 (stereo not drawn) | inactive: 7.24%
4 | C[C@H]1OP(=O)(Oc2ccccc2)[C@H](O)[C@H](O)[C@H]1N=[N+]=[N-] (stereo partly drawn) | inactive: -4.93%
5 | O=P(Nc1nc2ccccc2s1)(c1ccccc1)c1ccccc1 | inactive: 4.14%
6 | CN(C)CCOC(=O)C(O)(c1ccccc1)C1CCCCC1 (stereo not drawn) | inactive: 1.96%
7 | O=P(Nc1ccccn1)(c1ccc(Br)cc1)c1ccc(Br)cc1 | inactive: -12.5%
8 | COc1ccc(OP(C)(=O)Nc2cccc(Br)c2)cc1 (stereo not drawn) | inactive: -1.22%
9 | O=C(OC1CN2CCC1CC2)c1cccc(Cl)c1 (stereo not drawn) | inactive: -2.52%
10 | C(Cc1nn[nH]n1)Cc1nn[nH]n1 | inactive: 10.1%
11 | Nc1ccc([As](=O)(O)c2ccc([N+](=O)[O-])cc2)cc1 | inactive: 2.07%
12 | Cc1cc(-c2cccc3ccccc23)c(C)cn1.O=[N+]([O-])c1cc([N+](=O)[O-])c(O)c([N+](=O)[O-])c1 | inactive: -2.74%
13 | O=[As](O)(c1ccccc1)c1ccc(O)cc1 | inactive: 6.86%
14 | O=[N+]([O-])c1ccc(OP2(=O)COCCO2)cc1 (stereo not drawn) | inactive: -4.2%
15 | CC(=O)NC(SC(=S)N(C)C)C(Cl)(Cl)Cl (stereo not drawn) | inactive: 9.87%
16 | O=[N+]([O-])c1ncn(CCn2cnc([N+](=O)[O-])n2)n1 | inactive: 6.56%
17 | c1nnnn1CCn1cnnn1 | inactive: 1.02%
18 | CCOP(C)(=S)SCC(=O)NC(C)(CC)C(=O)O (stereo not drawn) | inactive: -9.61%
19 | O=P(Nc1nccs1)(c1ccccc1)c1ccccc1 | inactive: 4.86%
20 | CC(C)C(=O)NC(Sc1ccccc1)C(Cl)(Cl)Cl (stereo not drawn) | inactive: 0.935%
21 | CP(=O)(Nc1ccc(SC(F)(F)F)cc1)Oc1ccc(F)cc1 (stereo not drawn) | inactive: -7.45%
22 | Cc1ccccc1NP(C)(=O)Nc1ccccc1C | inactive: 2.72%
23 | CCN(CCCl)Cc1ccccc1C | inactive: -3.74%
24 | CP(=O)(Nc1ccc2c(c1)OCCO2)Oc1ccccc1 (stereo not drawn) | inactive: 2.83%

Row | SMILES | activity change, negative = inhibition
25 | CC(C)(C)C(=O)NC(Sc1ccccc1)C(Cl)(Cl)Cl (stereo not drawn) | inactive: -0.77% [at 21.1 µM]
26 | CP(=O)(Nc1ccccc1F)Oc1ccccc1 (stereo not drawn) | inactive: -11.8%
27 | CCOc1ccc(C2=NCC(CBr)S2)cc1 (stereo not drawn) | inactive: 10.6%
28 | O=P1(Nc2nc3ccc(Cl)cc3s2)COc2ccccc2O1 (stereo not drawn) | inactive: 4.69%
29 | CC(=O)Nc1ccc(Oc2c([N+](=O)[O-])cc([N+](=O)[O-])cc2[N+](=O)[O-])cc1 | inactive: -11.7%
30 | CC(=O)Nc1ccc([As](=O)(O)O)c(O)c1 | inactive: -2.52%
31 | C[C@H]1OP(=O)(Oc2ccccc2)C[C@@H]2O[C@@H]21 (stereo partly drawn) | inactive: 6.98%
32 | C[C@@H]1C=CCP(=O)(Oc2ccccc2)O1 (stereo partly drawn) | inactive: -1.22%
33 | O=C(OCCN1CCN(CCOCc2ccccc2)CC1)C(O)(c1ccccc1)c1ccccc1 | inactive: 1.51%
34 | COc1ccc(OP(C)(=O)Nc2ccc(SC(F)(F)F)cc2)cc1 (stereo not drawn) | inactive: -25.9%
35 | CCOC(=O)c1ccc(NP(C)(=O)Oc2ccc(F)cc2)cc1 (stereo not drawn) | inactive: 12.4%
36 | Cc1ccc(NP(=O)(Oc2cccc(C)c2)Oc2cccc(C)c2)nc1 | inactive: -3.68%
37 | CCOC(=O)NC(Sc1ccccc1)C(Cl)(Cl)Cl (stereo not drawn) | inactive: 6.61%
38 | c1ccc(-c2nn[nH]n2)c(-c2nn[nH]n2)c1 | inactive: -2.41%
39 | O=C(NC1CCS(=O)(=O)C1)NP(=S)(Oc1ccccc1)Oc1ccccc1 (stereo not drawn) | inactive: 0.246%
40 | CCNC(=S)/N=C(\N)N[N+](=O)[O-] | inactive: 8.25%
41 | O=c1c2cc([N+](=O)[O-])ccc2[nH]c2c([N+](=O)[O-])cc([N+](=O)[O-])cc12 | inactive: -5.33%
42 | CN(C)C(=O)Oc1noc2ccccc12 | inactive: -5.71%
43 | Cc1ccccc1OP(=O)(Nc1ccccn1)Oc1ccccc1C | inactive: -3.52%
44 | CP(=O)(Nc1ccccc1)Oc1ccc(F)cc1 (stereo not drawn) | inactive: 5.5%
45 | CCC(=O)N1C2C3N(C(=O)CC)C1C1N(C(=O)CC)C(C(N1C(=O)CC)N3C(=O)CC)N2C(=O)CC | inactive: 1.23%
46 | CCN(CC)CCCOC(=O)C(O)(c1ccccc1)C1CCCCC1 (stereo not drawn) | inactive: -10.6%
47 | CN(C(=O)Cc1ccc(Cl)c(Cl)c1)[C@@H]1CCCC[C@@H]1N1CCCC1 | inactive: -2.39%
48 | CC(=O)NC(SC(=S)N(CC(C)C)CC(C)C)C(Cl)(Cl)Cl (stereo not drawn) | inactive: 4.9%
